Results as given in patent publication US8426598B2, “N-heterocyclic M1 receptor positive allosteric modulators” (Merck, Sharp & Dohme, Corp., priority 2008, dated 2013).

Amino acid sequences for entries named in this document (tags omitted).
UniProt P11229, whole entry: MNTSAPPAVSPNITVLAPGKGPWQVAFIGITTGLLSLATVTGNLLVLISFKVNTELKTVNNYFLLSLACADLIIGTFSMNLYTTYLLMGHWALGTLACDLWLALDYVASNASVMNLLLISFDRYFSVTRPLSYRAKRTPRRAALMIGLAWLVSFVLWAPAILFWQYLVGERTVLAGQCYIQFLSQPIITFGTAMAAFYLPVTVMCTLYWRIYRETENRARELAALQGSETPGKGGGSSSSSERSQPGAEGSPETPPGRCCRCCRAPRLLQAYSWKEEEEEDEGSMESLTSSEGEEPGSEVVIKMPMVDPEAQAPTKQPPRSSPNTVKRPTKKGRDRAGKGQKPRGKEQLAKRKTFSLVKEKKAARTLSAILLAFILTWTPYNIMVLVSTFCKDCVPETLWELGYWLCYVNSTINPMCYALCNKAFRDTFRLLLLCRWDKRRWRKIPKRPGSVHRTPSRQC

Target: acetylcholine muscarinic M1 receptor (CHOnfat/hM1 cells) (Homo sapiens, UniProt P11229)
Assay: muscarinic FLIPR assay: intracellular calcium, potentiation of an EC20 concentration of acetylcholine
Conditions: read-out: IP Value (inflection point), FLIPR Ca2+, 4 min preincubation, then EC20 acetylcholine (3 nM final)
Procedure: The assay studies the effect of one or several concentrations of test compounds on basal or acetylcholine-stimulated Ca^2+ levels using FLIPR.
Compounds are prepared and subjected to a preincubation period of 4 min. Thereafter, a single EC20 concentration of acetylcholine is added to each well (3 nM final). The intracellular Ca^2+ level of each sample is measured and compared to an acetylcholine control to determine any modulatory activity.
Cells: CHOnfat/hM1, hM2, hM3 or hM4 cells are plated 24 hr before the assay at a density of 18,000 cells/well (100 μL) in a 384 well plate. CHOnfat/hM1 and CHOnfat/hM3 Growth Medium: 90% DMEM (Hi Glucose); 10% HI FBS; 2 mM L-glutamine; 0.1 mM NEAA; Pen-Strep; and 1 mg/ml Geneticin, are added. For M2Gqi5CHOnfat and M4Gqi5CHOnfat cells, an additional 600 μg/ml hygromycin is added.
Equipment: 384 well plate, 120 μL addition plate; 96-well Whatman 2 ml Uniplate Incubator, 37° C., 5% CO2; Skatron EMBLA-384 Plate Washer; Multimek Pipetting System; Genesis Freedom 200 System; Mosquito System; Temo Nanolitre Pipetting System; and FLIPR^384 Fluorometric Imaging Plate Reader System are used.
Buffers. […]
After 60 min, the cells are washed three times with 100 μL of buffer, leaving 30 μL of buffer in each well. […] A signal test to check background fluorescence and basal fluorescence signal is performed. […]

Compound	EC50
CCOC(=O)c1cn(Cc2ccc(-n3cc(C(O)C(F)(F)F)cn3)cc2)c2cccc(F)c2c1=O (centres unmarked)	120 nM
C=C(C)c1ccn(-c2ccc(Cn3cc(C(=O)O)c(=O)c4c(F)cccc43)cc2)n1	36 nM
